The values below come from ChEMBL document CHEMBL4373696, “Probing the Existence of a Metastable Binding Site at the β2-Adrenergic Receptor with Homobivalent Bitopic Ligands” (J Med Chem, 2019).

Protein sequences, listed by entry. Tags and fused reporters are not part of them.
UniProt P08588, whole entry: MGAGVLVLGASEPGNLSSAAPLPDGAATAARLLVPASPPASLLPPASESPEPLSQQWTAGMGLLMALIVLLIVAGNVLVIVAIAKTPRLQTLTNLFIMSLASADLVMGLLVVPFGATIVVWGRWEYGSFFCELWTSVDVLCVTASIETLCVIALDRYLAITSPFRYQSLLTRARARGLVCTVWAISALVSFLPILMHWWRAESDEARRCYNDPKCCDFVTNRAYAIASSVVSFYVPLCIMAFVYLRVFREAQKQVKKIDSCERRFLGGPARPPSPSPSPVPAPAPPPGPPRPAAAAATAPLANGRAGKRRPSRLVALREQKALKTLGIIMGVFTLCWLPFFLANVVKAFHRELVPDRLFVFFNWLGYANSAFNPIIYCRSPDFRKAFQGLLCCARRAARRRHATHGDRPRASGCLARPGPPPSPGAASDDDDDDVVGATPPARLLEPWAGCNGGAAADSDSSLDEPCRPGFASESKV

Assay [1] deals with T1, Beta-1 adrenergic receptor (Homo sapiens, UniProt P08588). The assay can be described thus: Antagonist activity at beta1 adrenergic receptor (unknown origin) stably expressed in HEK293 cell membranes assessed as inhibition of isoproterenol-induced cAMP production preincubated for 15 mins followed by isoproterenol addition and measured after 30 mins by TR-FRET assay. It counts as cell-based. In outline:
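Membranes from HEK293 cells stably overexpressing β1AR; ligand's blockade of isoproterenol-stimulated cAMP production measured; pIC50 as mean ± SEM from 3-8 independent experiments run in duplicate.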

For assay [2], the target named is T1, Beta-1 adrenergic receptor. The experiment in a line: Displacement of [3H]DHA from beta1 adrenergic receptor (unknown origin) stably expressed in HEK293 cell membranes measured after 90 mins by scintillation counting analysis. For orientation: Displacement assays read how much labelled ligand stays bound in the presence of the test substance.

A word on the IC50: it is the midpoint of a concentration-inhibition curve. For orientation: Ki means the dissociation constant of the complex between target and ligand, obtained from inhibition or displacement.

Molecules are shown by their SMILES.

In the case of `C=CCc1ccccc1OC[C@@H](O)CNC(C)C`, in assay [1], the IC50 is 5.89 nM.
In the case of `C=CCc1ccccc1OCC(O)CNC(C)C` (racemic) [ALPRENOLOL], in assay [2], affinity was put at a Ki of 2.82 nM. This lies in the single-digit nanomolar range.
